## Binding of CDR-mutated scFvs to a peptide of the spike HR2 region

All variants were tested on one target, the spike HR2 peptide PDVDLGDISGINAS (SARS-CoV-2).

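The parent was found by panning a naive human phage display library on the peptide. The variants were designed computationally from a first round of random CDR variants and then made and measured. Several design methods are mixed in this list. The assay is AlphaSeq: two haploid yeast populations carry antibody and antigen on their surface. The frequency of each diploid, read from paired DNA barcodes, reflects how well the two displayed proteins bind. Read counts were normalised to the haploid input and turned into Kd by a linear fit to BCL2-family pairs of known affinity, for each replicate. There are six technical replicates.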

Each scFv is VH, a (GGGGS)3 linker, VL, as in the parent Ab-14, and differs from it in the CDRs of the heavy chain only.
VH: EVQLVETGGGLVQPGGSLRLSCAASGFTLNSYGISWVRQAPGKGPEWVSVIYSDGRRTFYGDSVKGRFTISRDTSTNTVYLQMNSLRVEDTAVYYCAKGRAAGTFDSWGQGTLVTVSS
VL: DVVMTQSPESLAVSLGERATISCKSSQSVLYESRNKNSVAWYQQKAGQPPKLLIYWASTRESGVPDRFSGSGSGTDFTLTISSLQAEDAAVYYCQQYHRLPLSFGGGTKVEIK

Each variant's VH is given in full.
The read-out is the apparent dissociation constant on a log10 scale (nM): the lower, the stronger.
Averages over replicates are reported, and they cover detected replicates only.
"nd" means that the variant was in the library but no mating with the target was seen in any replicate; the authors take this as a sign of poor binding, and no number exists.
Order: sorted from the lowest average up, undetected variants last.
Background: pairings of all heavy chain designs with three empty control strains gave a value in 1% of cases (median 2.08, 5th percentile 0.84). Values in that range, when seen in few replicates, are hard to tell from nonspecific mating.
A sequence measured in both rounds can read differently, since the two assays cover different ranges.
The authors averaged sequences with at least three values out of six and counted those with two or fewer as poor binders.

VH,"mean, log10 nM",replicates with signal
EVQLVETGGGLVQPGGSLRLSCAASGFDLDEYGISWVRQAPGKGPEWVSVIYADGMRTAYTDSVKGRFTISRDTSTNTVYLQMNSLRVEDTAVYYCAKGEVAGTFDMWGQGTLVTVSS,-0.53,6/6
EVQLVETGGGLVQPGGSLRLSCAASGFDLNEYGISWVRQAPGKGPEWVSVIYADGMRTAYADSVKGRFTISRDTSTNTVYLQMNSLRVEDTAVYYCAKGETAGTFDMWGQGTLVTVSS,-0.52,6/6
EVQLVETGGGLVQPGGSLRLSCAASGFDLDEYGISWVRQAPGKGPEWVSVIYADGRRTFYSDSVKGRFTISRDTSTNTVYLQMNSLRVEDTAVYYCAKGSQAGTFDVWGQGTLVTVSS,-0.32,6/6
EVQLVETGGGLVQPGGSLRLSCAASGFDLNSYGISWVRQAPGKGPEWVSVIYSDGRRTFYADSVKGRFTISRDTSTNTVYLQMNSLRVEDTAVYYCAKGRMAGTFDTWGQGTLVTVSS,-0.04,6/6
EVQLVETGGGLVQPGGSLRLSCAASGFTLNEYGISWVRQAPGKGPEWVSVIYSDGRRTFYKDSVKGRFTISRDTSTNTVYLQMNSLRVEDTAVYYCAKGRLAGTFDSWGQGTLVTVSS,0.14,5/6
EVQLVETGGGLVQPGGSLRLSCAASGFDLNEYGISWVRQAPGKGPEWVSVIYADGMRTSYADSVKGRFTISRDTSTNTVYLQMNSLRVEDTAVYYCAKGQNAGTFDMWGQGTLVTVSS,0.18,6/6
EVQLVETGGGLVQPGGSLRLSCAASGFELNSYGISWVRQAPGKGPEWVSVIYSDGRRTFYADSVKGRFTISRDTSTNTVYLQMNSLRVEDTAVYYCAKGNAAGTFDTWGQGTLVTVSS,0.19,6/6
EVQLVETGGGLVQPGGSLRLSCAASGFSLNSYGISWVRQAPGKGPEWVSVIYSDGRRTFYDDSVKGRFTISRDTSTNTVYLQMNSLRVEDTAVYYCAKGRVAGTFDSWGQGTLVTVSS,0.23,6/6
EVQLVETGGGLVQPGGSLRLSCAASGFDLNEYGISWVRQAPGKGPEWVSVIYADGRRKFYADKVKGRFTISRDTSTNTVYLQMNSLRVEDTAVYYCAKGENAGTFVVWGQGTLVTVSS,0.24,6/6
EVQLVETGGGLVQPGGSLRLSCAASGFDLNEYGISWVRQAPGKGPEWVSVIYADGQRTAYSDSVKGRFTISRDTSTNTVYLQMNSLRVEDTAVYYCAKGENAGTFDMWGQGTLVTVSS,0.25,6/6
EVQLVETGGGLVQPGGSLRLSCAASGFTLNEYGISWVRQAPGKGPEWVSVIYSDGRRTFYQDSVKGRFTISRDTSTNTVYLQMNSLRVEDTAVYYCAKGRFAGTFDVWGQGTLVTVSS,0.62,6/6
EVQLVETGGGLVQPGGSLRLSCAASGFELNSYGISWVRQAPGKGPEWVSVIYSDGRRTFYHDSVKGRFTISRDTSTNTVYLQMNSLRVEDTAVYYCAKGQAAGTFDSWGQGTLVTVSS,0.69,6/6
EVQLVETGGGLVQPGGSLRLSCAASGFDLNSYGISWVRQAPGKGPEWVSVIYSDGRRTFYGDRVKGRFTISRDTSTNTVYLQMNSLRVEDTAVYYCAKGRFAGTFDSWGQGTLVTVSS,1.20,6/6
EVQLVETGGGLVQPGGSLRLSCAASGFTLNSYGISWVRQAPGKGPEWVSVIYSDGRRTFYAQSVKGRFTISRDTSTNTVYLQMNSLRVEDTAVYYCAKGEAAGTFDSWGQGTLVTVSS,1.64,5/6
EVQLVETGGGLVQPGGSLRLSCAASGFTLNSYGISWVRQAPGKGPEWVSVIYSDGRRTFYGDNVKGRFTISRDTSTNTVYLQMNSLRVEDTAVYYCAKGRLAGTFDSWGQGTLVTVSS,1.80,4/6
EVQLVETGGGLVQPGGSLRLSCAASKFELNSYGISWVRQAPGKGPEWVSVIYSDGRRTFYGDSVKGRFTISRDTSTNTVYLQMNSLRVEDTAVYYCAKGKTAGTFDTWGQGTLVTVSS,1.98,6/6
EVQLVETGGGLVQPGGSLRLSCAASGFWLNDYGISWVRQAPGKGPEWVSVIYSDGRRTFYGDSVKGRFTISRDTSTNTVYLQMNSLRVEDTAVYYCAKGKAAGTFDSWGQGTLVTVSS,2.04,1/6
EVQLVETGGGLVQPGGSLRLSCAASGFDLNSYGISWVRQAPGKGPEWVSVIYSDGRRTFYSDSVKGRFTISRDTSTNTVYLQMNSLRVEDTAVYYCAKGQAGGTFDSWGQGTLVTVSS,2.18,4/6
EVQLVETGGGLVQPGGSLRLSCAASGFTLNSYGISWVRQAPGKGPEWVSVIYSDGRRTFYGDSVKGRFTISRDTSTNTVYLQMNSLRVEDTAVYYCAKGRDAGIFDSWGQGTLVTVSS,nd,0/6
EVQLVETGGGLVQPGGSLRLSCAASGFGLDEYGISWVRQAPGKGPEWVSVIYADGQRVVYTQDVKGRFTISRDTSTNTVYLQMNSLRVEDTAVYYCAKGLYTFVKGIWGQGTLVTVSS,nd,0/6
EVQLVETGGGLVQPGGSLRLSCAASGFSLNEYGISWVRQAPGKGPEWVSVIYADGKRQVYANKVKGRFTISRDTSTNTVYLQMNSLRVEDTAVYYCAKGNKTMTFDIWGQGTLVTVSS,nd,0/6
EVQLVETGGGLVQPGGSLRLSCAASGFDLEEYGISWVRQAPGKGPEWVSVIYADGVRTAYVDNSKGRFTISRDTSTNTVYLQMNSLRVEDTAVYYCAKGENGGAYYTWGQGTLVTVSS,nd,0/6

Extract of 2 entries:

| VH | mean, log10 nM | replicates with signal |
|---|---|---|
| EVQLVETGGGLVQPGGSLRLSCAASGFTLNEYGISWVRQAPGKGPEWVSVIYSDGRRTFYQDSVKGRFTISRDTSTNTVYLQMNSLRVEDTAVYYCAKGRFAGTFDVWGQGTLVTVSS | 0.62 | 6/6 |
| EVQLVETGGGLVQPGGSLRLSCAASGFDLNEYGISWVRQAPGKGPEWVSVIYADGRRKFYADKVKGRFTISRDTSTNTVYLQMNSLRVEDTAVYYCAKGENAGTFVVWGQGTLVTVSS | 0.24 | 6/6 |

The measurements come from Li et al. 2023 (doi:10.1038/s41467-023-39022-2) through the FLAb antibody collection.